This passage reports IC50 results from ChEMBL document CHEMBL1131172 (J Med Chem, 1998).

The term IC50 denotes the midpoint of a concentration-inhibition curve.

The target of experiment [1] is T1, Dihydrofolate reductase (Pneumocystis carinii, UniProt P16184).
T1 sequence (P16184 whole entry): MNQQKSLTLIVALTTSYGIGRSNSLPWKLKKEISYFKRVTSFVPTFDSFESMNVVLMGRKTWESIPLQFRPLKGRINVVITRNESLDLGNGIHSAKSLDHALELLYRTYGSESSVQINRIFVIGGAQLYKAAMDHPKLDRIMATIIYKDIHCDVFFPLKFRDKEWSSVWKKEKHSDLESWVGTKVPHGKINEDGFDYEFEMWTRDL
It counts as functional.

In experiment [2] the target is T1, Dihydrofolate reductase.

For the compound `CN(c1ccc2ccccc2c1)c1ccc2nc(N)nc(N)c2n1`, on Dihydrofolate reductase [1], the IC50 amounted to 0.0317 µM.
With `COc1ccccc1Nc1ccc2nc(N)nc(N)c2n1`, the IC50 against Dihydrofolate reductase [2] was 8.7 µM.
On Dihydrofolate reductase [2], `COc1ccc(OC)c(Nc2ccc3nc(N)nc(N)c3n2)c1` had an IC50 of 16.1 µM.
Compound `COc1ccc(S(=O)(=O)c2ccc3nc(N)nc(N)c3n2)cc1` gave an IC50 against Dihydrofolate reductase [2] of 10.5 µM.
